This note sets out measurements from ChEMBL document CHEMBL1129335, “Synthesis and structure-activity relationships of 2-substituted D-tryptophan-containing peptidic endothelin receptor antagonists: importance of the C-2 substituent of the D-tryptophan residue for endothelin A and B receptor subtype selectivity” (J Med Chem, 1996).

Amino acid sequences for entries named in this document (tags omitted).
UniProt Q29010, whole entry: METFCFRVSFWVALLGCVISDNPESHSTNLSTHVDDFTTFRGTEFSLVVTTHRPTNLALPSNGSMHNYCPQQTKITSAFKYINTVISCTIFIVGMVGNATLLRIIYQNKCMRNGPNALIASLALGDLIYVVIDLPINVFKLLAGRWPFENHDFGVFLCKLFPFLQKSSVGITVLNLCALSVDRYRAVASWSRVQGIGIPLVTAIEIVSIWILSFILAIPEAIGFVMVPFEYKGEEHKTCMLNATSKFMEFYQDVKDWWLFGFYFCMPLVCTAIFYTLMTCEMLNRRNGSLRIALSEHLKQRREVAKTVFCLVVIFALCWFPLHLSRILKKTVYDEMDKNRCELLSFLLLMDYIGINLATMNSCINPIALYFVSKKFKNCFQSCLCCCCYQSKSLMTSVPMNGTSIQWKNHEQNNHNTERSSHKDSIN

For orientation: IC50 means the concentration that inhibits the measured activity by half. A high value points to lower potency.

Each structure is given as a SMILES string.

The target in the assay is Endothelin-1 receptor (Sus scrofa, UniProt Q29010). The assay can be described thus: Binding affinity towards endothelin A receptor in porcine aortic smooth muscle membranes. The procedure, abridged:
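Competitive binding in porcine membranes: aortic smooth muscle for ETA and cerebellum for ETB, run by a previously reported method. Variation was generally within 10%.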

Turning to `CCCCC(NC(=O)[C@@H](Cc1c(C#N)[nH]c2ccccc12)NC(=O)C(NC(=O)N1[C@H](C)CCC[C@@H]1C)C(C)C)C(=O)O` (stereo partly specified), the IC50 was 2 µM.
